Measurements as given in paper PMC4735769 (Cancer Medicine, 2015).

Experiment: sorafenib plasma pharmacokinetics (LC-MS/MS, noncompartmental)
Assay type: in vivo, human
Conditions: steady state, with topotecan

Compound: CNC(=O)c1cc(Oc2ccc(NC(=O)Nc3ccc(Cl)c(C(F)(F)F)c3)cc2)ccn1 [Sorafenib]
- C max (Cycle 2, day 1, 150 mg/m^2 (n = 6)): 6400 ± 5400 ng/mL
- T max (Cycle 2, day 1, 200 mg/m^2 (n = 1)): 1 h
